Measured values taken from ChEMBL document CHEMBL1138958, “Opioid receptor binding and antinociceptive activity of the analogues of endomorphin-2 and morphiceptin with phenylalanine mimics in the position 3 or 4” (Bioorg Med Chem Lett, 2006).

Sequences of proteins named here, by UniProt entry; tags and fusion partners are left off.
UniProt P33533, whole entry, looked up: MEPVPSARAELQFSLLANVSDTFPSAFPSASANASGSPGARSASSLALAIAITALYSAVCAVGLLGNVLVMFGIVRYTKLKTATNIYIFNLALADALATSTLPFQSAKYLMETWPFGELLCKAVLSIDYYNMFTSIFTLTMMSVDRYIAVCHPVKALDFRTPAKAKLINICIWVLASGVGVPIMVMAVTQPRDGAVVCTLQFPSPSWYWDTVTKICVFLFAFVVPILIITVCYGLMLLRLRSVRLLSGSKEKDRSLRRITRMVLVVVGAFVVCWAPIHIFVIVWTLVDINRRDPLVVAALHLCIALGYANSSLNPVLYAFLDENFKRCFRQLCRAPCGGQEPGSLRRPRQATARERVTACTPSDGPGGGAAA
UniProt P33535, whole entry, looked up: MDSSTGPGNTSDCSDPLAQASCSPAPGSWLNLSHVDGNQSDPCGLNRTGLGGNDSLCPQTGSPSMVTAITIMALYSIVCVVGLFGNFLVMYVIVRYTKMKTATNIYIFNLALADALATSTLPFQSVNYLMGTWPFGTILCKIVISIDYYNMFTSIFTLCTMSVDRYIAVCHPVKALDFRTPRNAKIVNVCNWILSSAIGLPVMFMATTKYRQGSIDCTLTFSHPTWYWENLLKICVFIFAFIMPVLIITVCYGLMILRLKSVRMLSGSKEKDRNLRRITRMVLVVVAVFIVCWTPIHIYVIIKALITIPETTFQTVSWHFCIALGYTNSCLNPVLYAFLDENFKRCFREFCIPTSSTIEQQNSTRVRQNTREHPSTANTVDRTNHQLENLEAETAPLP

Target: Opioid receptors; mu & delta (Rattus norvegicus) (UniProt P33533+P33535)
Test: Selectivity for mu opioid receptor over delta opioid receptor
Format: protein assay

In the case of `NC(=O)[C@H](NC(=O)[C@H](Cc1ccccc1)NC(=O)[C@@H]1CCCN1C(=O)[C@@H](N)Cc1ccc(O)cc1)c1ccccc1`, the Ratio Ki was > 46.3.

`NC(=O)[C@@H](NC(=O)[C@H](Cc1ccccc1)NC(=O)[C@@H]1CCCN1C(=O)[C@@H](N)Cc1ccc(O)cc1)c1ccccc1` was tested, and the Ratio Ki was > 372.
